This test addresses T1, PKCδ-GFP fusion protein (Homo sapiens, UniProt Q05655).
T1 construct: expressed in transfected cells; host or cells: CHO-k1 (Chinese hamster ovary, ATCC)
The test is described as follows: PKCδ-GFP translocation assay in living CHO-k1 cells (confocal microscopy). The format is cell-based, Chinese hamster. Here is the method:
With a panel of compounds bearing diverse functionality at C13, we began to explore how these modifications affect PKC binding and biological function. Because an obvious prerequisite for PKC pathway involvement is binding to PKC, compounds were initially evaluated for PKC affinity in a cell-free competitive binding assay with tritiated phorbol dibutyrate ([^3H]-PDBu). Assays were performed with representative members of both the conventional (PKCα) and novel (PKCδ) PKC families. Subsequently, compounds were assayed for PKC isoform translocation in real time in living cells using an optical assay. Translocation to the plasma membrane is the hallmark of PKC activation[18],[57],[60] and therefore monitoring the subcellular localization of a PKCδ-GFP fusion protein via confocal microscopy offers a convenient method for determining whether a compound enters a cell and engages its PKC isoform target. Finally and of clinical significance, we also determined the effect of compounds on CD22 surface expression in vitro in NALM6 cells, an ALL cell line previously studied in connection with CD22-targeted CAR T cell therapy, and two additional lymphoma cell lines[11],[31],[65].
Fig. 5 Bryostatin-induced PKC translocation. a Bryostatin-induced translocation of PKC from the cytosol to the membrane was determined in real time by monitoring cytosolic fluorescence of a PKCδ-GFP fusion protein using confocal microscopy. Scale bar represents 25 μm. Experiments performed in n = 3 biological replicates. b–d Cytosolic fluorescence normalized to t = 0 (time immediately prior to addition of compound to media) and plotted against time. Error bars excluded for clarity (data presented as the mean of n = 3 biological replicates). Individual curves with error bars included in Supplementary Information.
PKCδ-GFP Translocation Assay Protocol
Chinese hamster ovary factor K1 (CHO-k1, ATCC) cells were cultured in F-12 Kaighn’s media (Hyclone, 10% fetal bovine serum, 1% penicillin/streptomycin added, reffered to as F-12 +/+ below) at 37 ° C in an incubator (5% CO2). Cell cultures were maintained by splitting cells 1:3 when they reached ~75-100% confluence (every 2-3 days) as follows:
Media was aspirated (taking care not to disturb adherent cells) and 3 mL of 0.25% trypsin EDTA (Gibco) was used to remove the cells from the culture flask (T75, Falcon). 1 mL of the cell suspension was then added to 9 mL of fresh F-12 +/+ and the sample was sub-cultured until reaching confluence (~2-3 days).
A confluent culture of CHO-k1 cells was detached from a T75 flask with 3 mL 0.25% trypsin EDTA.
Cells were counted using a Countess II Automated Cell Counter (Fisher). The cell suspension was diluted to 240,000 cells/mL with fresh F-12 +/+ and 2.5 mL of this diluted stock was added to one well in a 6-well plate. […]

Protein sequences, listed by entry. Tags and fused reporters are not part of them. Lines headed by an entry give the natural chain unless they say otherwise; changes in a name come on top.
UniProt Q05655: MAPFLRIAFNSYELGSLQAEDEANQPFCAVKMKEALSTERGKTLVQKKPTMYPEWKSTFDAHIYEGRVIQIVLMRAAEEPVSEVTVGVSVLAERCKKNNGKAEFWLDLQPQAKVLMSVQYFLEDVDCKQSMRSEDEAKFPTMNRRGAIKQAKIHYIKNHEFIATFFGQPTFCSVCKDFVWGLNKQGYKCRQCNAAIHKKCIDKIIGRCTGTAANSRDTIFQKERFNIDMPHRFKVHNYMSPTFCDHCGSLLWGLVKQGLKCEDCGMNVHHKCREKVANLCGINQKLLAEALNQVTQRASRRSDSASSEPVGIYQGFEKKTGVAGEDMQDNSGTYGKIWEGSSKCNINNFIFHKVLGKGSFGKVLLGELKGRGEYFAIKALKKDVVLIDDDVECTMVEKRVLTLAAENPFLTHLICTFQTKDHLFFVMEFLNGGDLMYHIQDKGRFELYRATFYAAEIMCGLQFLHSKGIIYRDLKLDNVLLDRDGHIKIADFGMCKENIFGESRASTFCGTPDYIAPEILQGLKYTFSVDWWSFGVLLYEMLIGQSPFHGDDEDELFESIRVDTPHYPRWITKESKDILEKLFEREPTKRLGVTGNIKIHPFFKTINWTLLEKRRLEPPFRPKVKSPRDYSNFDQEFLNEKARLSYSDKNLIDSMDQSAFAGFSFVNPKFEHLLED

1 molecule from PMC7170889, “Synthesis and evaluation of designed PKC modulators for enhanced cancer immunotherapy” (Nature Communications, 2020) can be followed below.

Turning to `CCC/C=C/C=C/C(=O)O[C@H]1/C(=C/C(=O)OC)C[C@H]2C[C@H]([C@@H](C)O)OC(=O)C[C@H](O)C[C@@H]3C[C@H](OC(C)=O)C(C)(C)[C@](O)(C[C@@H]4C/C(=C/C(=O)OC)C[C@H](/C=C/C(C)(C)[C@]1(O)O2)O4)O3` [Bryostatin 1, reference compound], the “time required for translocation” value (200 nM) is given as at most 5 min. Moreover, the “cytosolic PKCδ-GFP translocated to the plasma membrane” value (200 nM, within 5 min) is listed as ~ 70%. Also, where the note is “CHO-K1, read-out: % Translocation (maximum translocation of PKCδ-GFP to the plasma membrane)”, the Emax at 0.2 µM was determined as 70%. For the same molecule, the “minimum effective concentration required to induce translocation of PKC-GFP to the membrane” value (CHO-k1 cells, tested at 200 and 1000 nM) is reported as 200 nM.
